Values of other authors as cited in publication PMC5394958 (Haematologica, 2016).

Experiments:
T315I BCR-ABL1 mutation = conditions: cited from earlier work
[1] = system: VEGF receptors 1, 2, and 3; conditions: patients; cited from earlier work

Row | SMILES | effectiveness against the T315I BCR-ABL1 mutation (T315I BCR-ABL1 mutation) | plasma levels of VEGF and PlGF [1]
1 | Cc1nc(Nc2ncc(C(=O)Nc3c(C)cccc3Cl)s2)cc(N2CCN(CCO)CC2)n1 [dasatinib] | not effective | 
2 | CCN(CC)CCNC(=O)c1c(C)[nH]c(/C=C2\C(=O)Nc3ccc(F)cc32)c1C [sunitinib] |  | increases
